Here are results for 1 compound from paper PMC6264418, “t-Bu2SiF-Derivatized D2-Receptor Ligands: The First SiFA-Containing Small Molecule Radiotracers for Target-Specific PET-Imaging” (Molecules, 2011).

Sequences of proteins named here, by UniProt entry; tags and fusion partners are left off.
UniProt P14416, whole entry: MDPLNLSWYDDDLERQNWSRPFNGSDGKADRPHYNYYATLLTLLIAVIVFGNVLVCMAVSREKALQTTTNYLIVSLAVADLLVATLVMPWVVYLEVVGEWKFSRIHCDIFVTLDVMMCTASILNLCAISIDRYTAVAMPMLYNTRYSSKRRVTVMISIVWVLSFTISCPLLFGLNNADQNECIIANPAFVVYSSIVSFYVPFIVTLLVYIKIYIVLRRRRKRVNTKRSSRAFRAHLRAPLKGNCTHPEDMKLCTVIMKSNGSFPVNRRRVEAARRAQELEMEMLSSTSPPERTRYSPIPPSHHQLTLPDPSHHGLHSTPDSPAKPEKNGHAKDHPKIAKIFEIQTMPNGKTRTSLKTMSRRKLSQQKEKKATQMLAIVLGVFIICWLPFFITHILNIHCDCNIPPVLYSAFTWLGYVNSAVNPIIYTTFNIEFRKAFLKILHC

For this test, the target named is T1, human D2 receptor (Homo sapiens, UniProt P14416).
T1 construct: expressed in transfected cells
As to the kind of experiment: [3H]spiperone binding assay, dopamine D2-receptor affinity (HEK293 cells stably expressing D2 receptors). The settings on record: [3H]spiperone competition, 3 independent experiments, Ki from IC50 by Cheng-Prusoff, read-out: Ki (nM ± SEM). On the procedure: Source of the dopamine-D2-receptors was cell line HEK293 which expresses the D2 receptors stably. […] All substances were evaluated in 3 independent competition experiments in six concentrations (each in triplicate). The Ki-values were calculated from the IC50-values according to Cheng-Prusoff as described in detail in [23].

In general, Ki refers to the equilibrium dissociation constant of an inhibitor or competing ligand from its target. In the case of `CCN1CCC[C@H]1CNC(=O)c1c(O)c(Cl)cc(Cl)c1OC` [Raclopride, raclopride, reference compound], the inhibition constant Ki came to 1.21 ± 0.43 nM.
